Experimental data taken from patent US20060088887A1.

Sequences of proteins named here, by UniProt entry; tags and fusion partners are left off. Residues count along the entry.
UniProt P62942, 2-108 limits assumed: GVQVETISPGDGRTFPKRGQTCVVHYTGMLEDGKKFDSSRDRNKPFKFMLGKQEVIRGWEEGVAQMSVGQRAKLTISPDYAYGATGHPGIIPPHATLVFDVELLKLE

How the values were obtained:
[1] = molecular target: T1, FK506-binding protein (FKBP) (Homo sapiens, UniProt P62942); assay: Fluorescent correlation analysis (FCS) binding of fluorescence-labeled compounds to FKBP
Text: As a target protein, FKBP was used, and a concentration thereof was adjusted to 10 nmol/L in a physiological buffer. A library of a plurality of compounds (also referred to as first compound library) was labeled with a fluorescent substance, 5-TAMRA (5-Carboxytetramethylrhodamine), and was adjusted to three concentrations (1, 10, and 100 nmol/L) (hereinafter, such fluorescence-labeled compound is referred to as first fluorescence-labeled compound). The target protein FKBP and the first fluorescence-labeled compound having any of three concentrations (1, 10, and 100 nmol/L) were mixed at the same amount of 50 μL. The mixture was incubated at room temperature for 15 to 30 minutes, placed in a 96-well glass bottom microplate, and measured with a fluorescent correlation analysis apparatus.
As laser, helium-neon laser 543 nm was used. Measurement was performed consecutively five times at a measuring time of 10 seconds per sample, and an average was adopted as data. As a measuring parameter, a translational diffusion time and a molecular concentration were calculated, and affinity of each compound was studied by a Kd value (dissociation constant).
(i) a first fluorescence-labeled compound alone, and (ii) a target protein (FKBP) which had interacted with the compound were discriminated by a translational diffusion time, and thereby discriminated as two kinds of molecular species. […]

[2] = molecular target: T1, FK506-binding protein (FKBP); assay: Fluorescent correlation analysis (FCS) binding of second (Cy5-labeled) compounds to FKBP which had interacted with Compound 2; conditions: for Kd: read-out: Kd value (dissociation constant)
Protocol: Then, a mixture solution of a Compound 2 and a target protein FKBP was prepared. In the mixture solution, the Compound 2 interacts with FKBP and, thereby, a Compound 2 which is bound to FKBP and a Compound 2 which is in a free state are present in admixture with each other in the equilibrium state. Using such the mixture solution, a compound which binds to FKBP which had interacted with Compound 2, in a vicinity of the Compound 2, was further screened among a group of a few kinds of compounds (also referred to as second compound library).
The second compound library was labeled with Cy5 (Amersham) as a fluorescent substance (hereinafter, such a fluorescence-labeled compound is referred to as second fluorescence-labeled compound). In a fluorescent correlation analysis apparatus, helium-neon laser 633 nm was irradiated for measurement. The second fluorescence-labeled compound uses a different excitation wavelength from that of the aforementioned first fluorescence-labeled compound, upon detection. For this reason, when a wavelength exciting only a second fluorescence-labeled compound is irradiated, only a sample with which two kinds of fluorescence-labeled compounds interacted can be screened.
A translational diffusion time measured by a fluorescent correlation analysis apparatus is about 60μ seconds in (i) the second fluorescence-labeled compound, and about 240μ seconds in (ii) a target protein (FKBP) with which both of the first fluorescence-labeled compound and the second fluorescence-labeled compound interacted.
Thereby, using about 240μ seconds of a translational diffusion time of the complex obtained by interaction with two kinds of compounds, a concentration of each molecular species (i.e., a concentration of a fluorescence-labeled compound in a free state and a concentration of the complex obtained by interaction) was calculated. As a result, a Kd value (dissociation constant) which is to be an index of affinity was obtained.

COc1cc(C(=O)C(=O)N2CCCCC2C(=O)OCCCOc2ccc(C(=O)Nc3ccc(O)cc3)cc2)cc(OC)c1OC (centres unmarked)
affinity for FKBP among compounds 10 to 14 ([1]; comparison among five linked compounds): highest affinity for FKBP

COC(=O)C1CCCCN1C(=O)C(=O)c1cc(OC)c(OC)c(OC)c1 (centres unmarked)
Kd ([1]; read-out: Kd value (dissociation constant), 5-TAMRA-labeled compound, FKBP 10 nmol/L, room temperature 15 to 30 minutes, laser 543 nm): 2 µM

O=C(Nc1ccccc1O)c1ccc(O)cc1
Kd ([2]; Cy5-labeled compound, in mixture solution of Compound 2 and FKBP, laser 633 nm): 800 µM

O=C(Nc1ccc(O)cc1)c1ccc(O)cc1
stability of binding to target protein among Compounds 3 to 9 ([2]; comparison of Kd values of Compounds 3 to 9): most stably binds to a target protein | Kd ([2]; side-chain-altered analogue of Compound 3, second binding site): 100 µM
